# Measured affinities in a library of Ab-95 light chain variants

Source: Engelhart et al. 2022 (doi:10.1038/s41597-022-01779-4), MIT Lincoln Laboratory and A-Alpha Bio; data file from the FLAb repository.

Target peptide (SARS-CoV-2 spike, HR2 region): PDVDLGDISGINAS

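The starting antibody came from a phage panning campaign against this peptide. Variants in AAYL52 differ from the parent at up to three CDR positions; double and triple changes were sampled at random. AlphaSeq pools MATa yeast showing the antibodies with MATalpha yeast showing the peptide. Pairs that bind mate more often; barcode pairs of the diploids are counted by sequencing. Read counts were normalised to the haploid input and turned into Kd by a linear fit to BCL2-family pairs of known affinity, for each replicate. The assay was run in three technical replicates.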

Each scFv is VH, the linker GGGGSGGGGSGGGGS, VL, as in the parent Ab-95, and differs from it in the CDRs of the light chain only.
VH: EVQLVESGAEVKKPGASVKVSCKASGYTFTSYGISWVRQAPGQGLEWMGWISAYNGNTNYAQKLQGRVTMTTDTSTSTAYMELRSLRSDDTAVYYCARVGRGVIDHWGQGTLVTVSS
VL: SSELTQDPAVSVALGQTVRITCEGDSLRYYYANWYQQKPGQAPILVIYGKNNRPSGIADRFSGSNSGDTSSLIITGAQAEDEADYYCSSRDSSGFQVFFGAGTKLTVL

Each variant is given by its three light chain CDRs, as the data file delimits them; those of the parent are EGDSLRYYYAN, GKNNRPS, SSRDSSGFQVF. Values are log10 of the apparent Kd in nM; lower means stronger binding. "nd" means that the variant was in the library but no mating with the target was seen in that replicate; the authors take this as a sign of poor binding, and no number exists.

| # | CDR-L1 | CDR-L2 | CDR-L3 | log10 Kd, replicates |
|---|---|---|---|---|
| 1 | EGDSLRYIYAN | GKNNRPG | SSRDSSGFQVF | 2.68 2.82 2.55 |
| 2 | EGDSLQYYYAN | GKNNRPS | SSRDSGGFQVF | 2.66 2.05 1.85 |
| 3 | EGHSLRYYYAN | GKNNRPS | SSRNSDGFQVF | 2.58 2.49 2.01 |
| 4 | EFDSNRYYYAN | GKNNRPS | SSRDSKGFQVF | 4.05 4.79 4.16 |
| 5 | EEDSLQYYYPN | GKNNRPS | SSRDSSGFQVF | 2.07 1.53 1.60 |
| 6 | EGDSLRYYYAN | YKNNRPS | SVRDGSGFQVF | nd nd nd |
| 7 | EGDSLRYYYIN | GKNNRPC | KSRDSSGFQVF | nd nd nd |
| 8 | EGDSLRYYYKN | GKNNRPS | SQRDSSGFQVM | 3.58 5.03 nd |
| 9 | EGDSLRYLYAR | GKNNRPS | SSRDSSIFQVF | 4.79 nd nd |
| 10 | IGDSLIYYYAN | GQNNRPS | SSRDSSGFQVF | 2.80 2.99 1.86 |
| 11 | EGDSLRYMYAN | GKNNRPS | SSRDSSGFQQL | nd nd nd |
| 12 | EGDSLRYTYAN | GKNNRMS | SSRDSPGFQVF | 1.85 2.04 1.31 |
| 13 | EGDILRYYYAN | GKNNRPS | HSRDSSGFQVC | 1.80 1.89 1.77 |
| 14 | EGDSLRYYYAW | GKNNRPS | SSIDSYGFQVF | 4.12 3.31 nd |
| 15 | EGYSLRYYYAN | GKNNRPS | SSRRSDGFQVF | 2.89 2.71 2.23 |
| 16 | EGWSLRYGYAN | GLNNRPS | SSRDSSGFQVF | 1.27 1.26 0.86 |
| 17 | EGDSLRYYLAN | GKNNRPS | SSRDSSKFQVG | 4.91 4.36 nd |
| 18 | EGDSLRYYYAR | GKNNRPS | EKRDSSGFQVF | nd 3.42 3.81 |
| 19 | EGDVLRYYYAN | GKNNRPS | SSRDFSGFQGF | 3.16 3.36 nd |
| 20 | EGDSLFTYYAN | GKNNRPS | SSRCSSGFQVF | 2.82 2.67 nd |
| 21 | EGDSLLYYYAH | GKNNRPS | SSRDYSGFQVF | 2.94 2.78 4.25 |
| 22 | EGDSLLYYDAN | GKNNRPS | SSRDSSGFQVT | nd nd nd |
| 23 | EGDSLRYYYAQ | GKNNLPS | SSRDSSGFQMF | 3.61 nd nd |
| 24 | EGDSLRYHYAN | GKNNRPS | SSQDSSGWQVF | 2.33 2.69 2.52 |
| 25 | KGDSLRAYYAN | GKNNRPH | SSRDSSGFQVF | 2.34 1.87 1.45 |
| 26 | EGDSLRYYYAN | GDNNTPI | SSRDSSGFQVF | 3.25 3.07 2.24 |
| 27 | EGDSLRLYYAN | GTNNRPS | ISRDSSGFQVF | 4.05 4.86 4.79 |
| 28 | EGDSLRYYYAP | GKNNRPG | SSRDSSNFQVF | 3.25 5.32 nd |
| 29 | EGDSKRYYYAN | GKNQRPS | SSRDWSGFQVF | 4.73 4.56 4.37 |
| 30 | EGDSLRGYYAN | GKNNRPS | SCRDSSGFQEF | nd 3.76 3.68 |
| 31 | EGDSLRYYSAN | GNNNRPI | SSRDSSGFQVF | 1.61 1.27 1.11 |
| 32 | HGDSLRYYYAN | GGNNRPE | SSRDSSGFQVF | 1.43 1.69 1.13 |
| 33 | EGCSLRYYYAN | GKNNKPS | SSRDSSGFQVA | nd nd nd |
| 34 | EGDSLRYYYAN | GKHNRPS | SSRDSSLFAVF | 5.36 5.14 nd |
| 35 | EHTQLRYYYAN | GKNNRPS | SSRDSSGFQVF | 2.81 2.62 1.81 |
| 36 | EGDSLRYYYAN | GKNNRPS | SKKDSSGWQVF | 3.29 nd 4.33 |
| 37 | EGDSLRYYYAN | GKNNNPS | SSDDCSGFQVF | nd 3.05 3.65 |
| 38 | EGDSLRYYYAY | GGNNRPY | SSRDSSGFQVF | 3.71 5.47 3.81 |
| 39 | WGDSLRYYYAN | GKNNRPS | SAYDSSGFQVF | 2.96 3.25 nd |
| 40 | EGDSLKYYYAN | GKNNRPS | SSRDSPGFQVC | 3.02 2.97 3.44 |
| 41 | EGDDLRYYYAN | EKNNRPS | SSRDSAGFQVF | 3.68 2.91 nd |
| 42 | EGDSLRQYYAN | DKNNRPS | SSRDSSSFQVF | nd 3.35 4.56 |
| 43 | EGDSLRYYYAN | GKNNRPS | LSNDSSGFQVC | 2.19 2.24 2.11 |
| 44 | EGDSGRYYYAC | GKNNRPS | SSPDSSGFQVF | nd nd nd |
| 45 | EGDSVRYYYWN | GKNNRPS | SERDSSGFQVF | nd 3.48 nd |
| 46 | EGDYLRYYYAN | GENNRPS | SSRDSSGFQVF | 3.19 3.66 3.58 |
| 47 | GGDSLRYYYKN | GKNNRPS | SSRDSGGFQVF | 5.14 nd nd |
| 48 | EGDSLRYYYAN | GKNNRPH | SSRDSSGFQSF | 3.15 3.23 3.65 |
| 49 | HSDSLRYYYAN | VKNNRPS | SSRDSSGFQVF | 4.77 6.21 nd |

Excerpt, the first 7 entries:

| CDR-L1 | CDR-L2 | CDR-L3 | log10 Kd, replicates |
|---|---|---|---|
| EGDSLRYIYAN | GKNNRPG | SSRDSSGFQVF | 2.68 2.82 2.55 |
| EGDSLQYYYAN | GKNNRPS | SSRDSGGFQVF | 2.66 2.05 1.85 |
| EGHSLRYYYAN | GKNNRPS | SSRNSDGFQVF | 2.58 2.49 2.01 |
| EFDSNRYYYAN | GKNNRPS | SSRDSKGFQVF | 4.05 4.79 4.16 |
| EEDSLQYYYPN | GKNNRPS | SSRDSSGFQVF | 2.07 1.53 1.60 |
| EGDSLRYYYAN | YKNNRPS | SVRDGSGFQVF | nd nd nd |
| EGDSLRYYYIN | GKNNRPC | KSRDSSGFQVF | nd nd nd |

Parent in this assay: reference entry 2.31, copy in this library 2.25. Empty control strains, which show no peptide, gave a signal in 28% of pairings with library AAYL52; the median was 3.91 and 95% of these signals were weaker than 2.90. No background was subtracted.